## Permeability data for macrocyclic peptides

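Conditions beyond the assay type are not listed; see the original paper. Other peptides of the study may be missing here. Entries at the database's floor value (log10 P of -10) are not listed.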

PAMPA measures passive passage through an artificial lipid membrane.
Permeability is in 10^-6 cm/s, converted from the database's log10 values; higher is more permeable.

SMILES,PAMPA (10^-6 cm/s)
CC(=O)N1CCC[C@H]1C(=O)N(C)[C@@H](CC(C)C)C(=O)N[C@@H]1C(=O)N[C@H](CC(C)C)C(=O)N[C@H](CC(C)C)C(=O)N(C)[C@@H](CC(C)C)C(=O)N(C)[C@@H](C)C(=O)N[C@H](CC(C)C)C(=O)N2CCC[C@@H]2C(=O)O[C@@H]1C,0.4
CC(=O)N1CCC[C@H]1C(=O)N(C)[C@H](CC(C)C)C(=O)N[C@@H]1C(=O)N[C@@H](CC(C)C)C(=O)N[C@H](CC(C)C)C(=O)N[C@H](CC(C)C)C(=O)N[C@H](C)C(=O)N[C@H](CC(C)C)C(=O)N2CCC[C@H]2C(=O)O[C@@H]1C,0.25
CC(=O)N1CCC[C@H]1C(=O)N[C@@H]1C(=O)N[C@H](CC(C)C)C(=O)N[C@@H](CC(C)C)C(=O)N[C@H](CC(C)C)C(=O)N(C)[C@@H](CC(C)C)C(=O)N(C)[C@@H](C)C(=O)N[C@@H](CC(C)C)C(=O)N2CCC[C@@H]2C(=O)O[C@@H]1C,1.1
CC(=O)N1CCC[C@H]1C(=O)N(C)[C@H](CC(C)C)C(=O)N[C@@H]1C(=O)N(C)[C@@H](CC(C)C)C(=O)N(C)[C@H](CC(C)C)C(=O)N(C)[C@@H](CC(C)C)C(=O)N(C)[C@H](C)C(=O)N[C@H](CC(C)C)C(=O)N2CCC[C@@H]2C(=O)O[C@@H]1C,7.1
CC(=O)N1CCC[C@@H]1C(=O)N(C)[C@H](CC(C)C)C(=O)N[C@@H]1C(=O)N(C)[C@@H](CC(C)C)C(=O)N[C@@H](CC(C)C)C(=O)N[C@@H](CC(C)C)C(=O)N(C)[C@@H](C)C(=O)N[C@H](CC(C)C)C(=O)N2CCC[C@H]2C(=O)O[C@@H]1C,1.1
CC(=O)N1CCC[C@@H]1C(=O)N(C)[C@H](CC(C)C)C(=O)N[C@@H]1C(=O)N(C)[C@H](CC(C)C)C(=O)N(C)[C@@H](CC(C)C)C(=O)N[C@@H](CC(C)C)C(=O)N(C)[C@@H](C)C(=O)N[C@@H](CC(C)C)C(=O)N2CCC[C@H]2C(=O)O[C@@H]1C,0.35
CC(=O)N1CCC[C@@H]1C(=O)N(C)[C@H](CC(C)C)C(=O)N[C@@H]1C(=O)N[C@@H](CC(C)C)C(=O)N(C)[C@H](CC(C)C)C(=O)N(C)[C@H](CC(C)C)C(=O)N(C)[C@@H](C)C(=O)N[C@@H](CC(C)C)C(=O)N2CCC[C@H]2C(=O)O[C@@H]1C,0.52
CC(=O)N1CCC[C@H]1C(=O)N(C)[C@H](CC(C)C)C(=O)N[C@@H]1C(=O)N[C@H](CC(C)C)C(=O)N[C@@H](CC(C)C)C(=O)N(C)[C@@H](CC(C)C)C(=O)N(C)[C@@H](C)C(=O)N[C@@H](CC(C)C)C(=O)N2CCC[C@@H]2C(=O)O[C@@H]1C,4.6
CC(=O)N1CCC[C@@H]1C(=O)N(C)[C@@H](CC(C)C)C(=O)N[C@@H]1C(=O)N[C@@H](CC(C)C)C(=O)N(C)[C@H](CC(C)C)C(=O)N[C@H](CC(C)C)C(=O)N[C@H](C)C(=O)N[C@@H](CC(C)C)C(=O)N2CCC[C@@H]2C(=O)O[C@@H]1C,2.5
CC(=O)N1CCC[C@H]1C(=O)N(C)[C@H](CC(C)C)C(=O)N[C@@H]1C(=O)N(C)[C@@H](CC(C)C)C(=O)N[C@H](CC(C)C)C(=O)N[C@@H](CC(C)C)C(=O)N[C@@H](C)C(=O)N[C@@H](CC(C)C)C(=O)N2CCC[C@H]2C(=O)O[C@@H]1C,0.32
CC(=O)N1CCC[C@H]1C(=O)N(C)[C@H](CC(C)C)C(=O)N[C@@H]1C(=O)N[C@@H](CC(C)C)C(=O)N[C@@H](CC(C)C)C(=O)N[C@@H](CC(C)C)C(=O)N(C)[C@@H](C)C(=O)N[C@H](CC(C)C)C(=O)N2CCC[C@H]2C(=O)O[C@@H]1C,0.62
CC(=O)N1CCC[C@H]1C(=O)N(C)[C@@H](CC(C)C)C(=O)N[C@@H]1C(=O)N(C)[C@H](CC(C)C)C(=O)N[C@H](CC(C)C)C(=O)N(C)[C@@H](CC(C)C)C(=O)N(C)[C@H](C)C(=O)N[C@@H](CC(C)C)C(=O)N2CCC[C@@H]2C(=O)O[C@@H]1C,5
CC(=O)N1CCC[C@H]1C(=O)N[C@@H]1C(=O)N[C@H](CC(C)C)C(=O)N(C)[C@@H](CC(C)C)C(=O)N[C@@H](CC(C)C)C(=O)N[C@@H](CC(C)C)C(=O)N(C)[C@@H](C)C(=O)N[C@@H](CC(C)C)C(=O)N2CCC[C@@H]2C(=O)O[C@@H]1C,1.6
CC(=O)N[C@@H]1C(=O)N2CCC[C@H]2C(=O)N(C)[C@H](CC(C)C)C(=O)N[C@H](CC(C)C)C(=O)N[C@H](CC(C)C)C(=O)N[C@@H](CC(C)C)C(=O)N(C)[C@@H](C)C(=O)N[C@@H](CC(C)C)C(=O)N2CCC[C@@H]2C(=O)O[C@@H]1C,0.17
CC(=O)N1CCC[C@@H]1C(=O)N(C)[C@H](CC(C)C)C(=O)N[C@@H]1C(=O)N[C@@H](CC(C)C)C(=O)N[C@H](CC(C)C)C(=O)N(C)[C@H](CC(C)C)C(=O)N(C)[C@H](C)C(=O)N[C@@H](CC(C)C)C(=O)N2CCC[C@@H]2C(=O)O[C@@H]1C,0.087
CC(=O)N[C@@H]1C(=O)N2CCC[C@H]2C(=O)N(C)[C@H](CC(C)C)C(=O)N[C@@H](CC(C)C)C(=O)N[C@H](CC(C)C)C(=O)N[C@H](CC(C)C)C(=O)N[C@H](C)C(=O)N[C@@H](CC(C)C)C(=O)N2CCC[C@@H]2C(=O)O[C@@H]1C,0.048
CC(=O)N1CCC[C@@H]1C(=O)N(C)[C@@H](CC(C)C)C(=O)N[C@@H]1C(=O)N(C)[C@@H](CC(C)C)C(=O)N(C)[C@H](CC(C)C)C(=O)N(C)[C@@H](CC(C)C)C(=O)N(C)[C@H](C)C(=O)N[C@@H](CC(C)C)C(=O)N2CCC[C@@H]2C(=O)O[C@@H]1C,4.5
CC(=O)N1CCC[C@@H]1C(=O)N(C)[C@H](CC(C)C)C(=O)N[C@@H]1C(=O)N[C@H](CC(C)C)C(=O)N[C@H](CC(C)C)C(=O)N[C@H](CC(C)C)C(=O)N(C)[C@@H](C)C(=O)N[C@H](CC(C)C)C(=O)N2CCC[C@H]2C(=O)O[C@@H]1C,0.6
CC(=O)N1CCC[C@H]1C(=O)N(C)[C@H](CC(C)C)C(=O)N[C@@H]1C(=O)N(C)[C@@H](CC(C)C)C(=O)N[C@@H](CC(C)C)C(=O)N[C@@H](CC(C)C)C(=O)N(C)[C@@H](C)C(=O)N[C@H](CC(C)C)C(=O)N2CCC[C@@H]2C(=O)O[C@@H]1C,1.7
CC(=O)N1CCC[C@H]1C(=O)N(C)[C@H](CC(C)C)C(=O)N[C@@H]1C(=O)N(C)[C@@H](CC(C)C)C(=O)N[C@@H](CC(C)C)C(=O)N(C)[C@H](CC(C)C)C(=O)N[C@@H](C)C(=O)N[C@@H](CC(C)C)C(=O)N2CCC[C@H]2C(=O)O[C@@H]1C,4.8
CC(=O)N1CCC[C@H]1C(=O)N(C)[C@H](CC(C)C)C(=O)N[C@@H]1C(=O)N(C)[C@H](CC(C)C)C(=O)N(C)[C@H](CC(C)C)C(=O)N[C@H](CC(C)C)C(=O)N(C)[C@H](C)C(=O)N[C@@H](CC(C)C)C(=O)N2CCC[C@H]2C(=O)O[C@@H]1C,10
CC(=O)N1CCC[C@H]1C(=O)N(C)[C@@H](CC(C)C)C(=O)N[C@@H]1C(=O)N(C)[C@H](CC(C)C)C(=O)N(C)[C@@H](CC(C)C)C(=O)N(C)[C@H](CC(C)C)C(=O)N(C)[C@H](C)C(=O)N[C@@H](CC(C)C)C(=O)N2CCC[C@@H]2C(=O)O[C@@H]1C,5

The 2 highest values of PAMPA among the entries above:

SMILES,PAMPA (10^-6 cm/s)
CC(=O)N1CCC[C@H]1C(=O)N(C)[C@H](CC(C)C)C(=O)N[C@@H]1C(=O)N(C)[C@H](CC(C)C)C(=O)N(C)[C@H](CC(C)C)C(=O)N[C@H](CC(C)C)C(=O)N(C)[C@H](C)C(=O)N[C@@H](CC(C)C)C(=O)N2CCC[C@H]2C(=O)O[C@@H]1C,10
CC(=O)N1CCC[C@H]1C(=O)N(C)[C@H](CC(C)C)C(=O)N[C@@H]1C(=O)N(C)[C@@H](CC(C)C)C(=O)N(C)[C@H](CC(C)C)C(=O)N(C)[C@@H](CC(C)C)C(=O)N(C)[C@H](C)C(=O)N[C@H](CC(C)C)C(=O)N2CCC[C@@H]2C(=O)O[C@@H]1C,7.1

Collected by the curators of CycPeptMPDB (Li et al. 2023) from Kelly et al. 2021, doi:10.1021/jacs.0c06115.